Values of other authors, collected in US11304902B2, “Pharmaceutical compositions, preparation and uses thereof” (CURADIGM SAS, priority 2014, dated 2022).

The chains behind the UniProt entries cited, without tags or fusion partners.
UniProt P08684, whole entry: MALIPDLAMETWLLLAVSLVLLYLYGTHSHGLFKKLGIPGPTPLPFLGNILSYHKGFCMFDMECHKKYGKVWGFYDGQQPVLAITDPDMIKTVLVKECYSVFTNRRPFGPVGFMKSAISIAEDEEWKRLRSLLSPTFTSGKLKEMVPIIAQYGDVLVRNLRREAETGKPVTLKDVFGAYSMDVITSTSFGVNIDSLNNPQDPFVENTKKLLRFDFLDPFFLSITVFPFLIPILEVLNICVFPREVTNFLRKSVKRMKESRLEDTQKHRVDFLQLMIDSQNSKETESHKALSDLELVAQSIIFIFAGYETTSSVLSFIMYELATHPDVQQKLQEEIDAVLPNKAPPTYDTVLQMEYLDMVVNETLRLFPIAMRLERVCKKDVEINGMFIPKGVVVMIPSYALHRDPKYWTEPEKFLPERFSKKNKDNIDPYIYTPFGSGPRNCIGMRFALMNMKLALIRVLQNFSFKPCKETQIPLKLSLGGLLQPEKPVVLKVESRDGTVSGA

Molecular target: CYP3A4 (Homo sapiens, UniProt P08684)
Conditions: human CYP enzyme

O=C1Nc2ccc(Cl)cc2[C@@](C#CC2CC2)(C(F)(F)F)O1 [Efavirenz, efavirenz]
role towards CYP3A4 (substrate / inhibitor / inducer): Substrate; also recorded: Inducer; also recorded: Inhibitor

“Also recorded” adds a separate entry of the source.
